The target in this experiment is Mu-type opioid receptor (Homo sapiens, UniProt P35372). Description: Agonist activity at mu opioid receptor (unknown origin) expressed in cells by beta-arrestin recruitment assay. Background: Arrestin recruitment assays detect the binding of arrestin to an activated receptor.

Protein sequences, listed by entry. Tags and fused reporters are not part of them.
UniProt P35372, whole entry: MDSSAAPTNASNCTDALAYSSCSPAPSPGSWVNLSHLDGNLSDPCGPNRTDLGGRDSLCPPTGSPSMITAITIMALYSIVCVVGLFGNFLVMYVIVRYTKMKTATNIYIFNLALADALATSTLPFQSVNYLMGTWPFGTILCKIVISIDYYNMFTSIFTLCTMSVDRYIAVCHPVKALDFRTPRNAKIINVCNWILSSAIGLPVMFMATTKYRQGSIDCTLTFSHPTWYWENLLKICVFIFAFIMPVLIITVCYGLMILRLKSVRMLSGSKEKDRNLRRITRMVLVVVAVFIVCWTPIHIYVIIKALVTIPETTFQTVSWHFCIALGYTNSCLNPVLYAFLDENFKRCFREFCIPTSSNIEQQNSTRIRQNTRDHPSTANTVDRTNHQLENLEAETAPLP

As usually defined, the EC50 is the midpoint of the concentration-response curve. Lower therefore signals a more potent agent.

`Cc1cnc2c(-c3ccc(C(=O)N(c4ncccc4C)[C@@H]4CCCNC4)cc3F)cnn2c1`: the EC50 was > 10 µM.

Source of the values: ChEMBL document CHEMBL5034046, “Discovery of Small-Molecule CD33 Pre-mRNA Splicing Modulators” (ACS Med Chem Lett, 2022).
